For this experiment, the system named is Lysosomal alpha-glucosidase (Homo sapiens), P10253 [M519V]. The experiment can be described thus: Induction of GAA M519V mutant activity in Pompe patient fibroblast cells assessed as fold increase in intracellular activity using 4- methylumbelliferyl-alpha-D-glucopyranoside measured after 7 days at 50 uM relative to control. In kind it is cell-based. To be noted: time 7.0 day.

SMILES strings stand for the structures.

As for `CCCCN1C[C@@H](O)[C@H](O)[C@H]1CO`, the fold change (FC) is 9.8.

The record behind these values is ChEMBL document CHEMBL5331109, “Design and Pharmacological Chaperone Effects of N-(4'-Phenylbutyl)-DAB Derivatives Targeting the Lipophilic Pocket of Lysosomal Acid α-Glucosidase” (J Med Chem, 2023).
